Values quoted from earlier work, collected in patent US20100111867A1, “CARBORANE-PHOSPHONIUM COMPOUNDS AND THEIR USE IN BORON NEUTRON CAPTURE THERAPY AND IMAGING” (THE UNIVERSITY OF SYDNEY, priority 2007, published 2010).

Test system: canine brain tumour
Settings: 11C-labelled, PET; cited from earlier work

## triphenylmethylphosphonium (TPMP) iodide [TPMP iodide]
  time retained in the tumour: ca. 95 min
